Where two headings read alike, the source gives them in different places. Blank lines part the entries; values can stand above or below the molecule they belong to.
Key:
[1] = system: hiPSC-CM (iCell Cardiomyocytes^2); experiment: miRNA in hiPSC-CM culture media by RT-qPCR at 24, 48 and 72 h post-treatment;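 note: medium RNA quantified by RT-qPCR, CT-values normalized to housekeeping miRNAs, compared against DMSO control, doses chosen from the MEC for CI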
[2] = system: hiPSC-CM (iCell Cardiomyocytes^2); experiment: Intracellular miRNA expression by RT-qPCR in hiPSC-CM pellets after 72-hour treatment; conditions: for hsa-miR-7-5p fold change, intracellular / hsa-miR-29a-5p fold change, intracellular / hsa-miR-96-5p fold change, intracellular / hsa-miR-126-3p fold change, intracellular / hsa-miR-133b fold change, intracellular / hsa-miR-146b-5p fold change, intracellular / hsa-miR-182-5p fold change, intracellular / hsa-miR-185-3p fold change, intracellular / hsa-miR-187-3p fold change, intracellular / hsa-miR-208b-3p fold change, intracellular / hsa-miR-365a-5p fold change, intracellular / hsa-miR-[…] change, intracellular: 72 h
Protocol: (§1) Culture media change was performed every 2 days.
Total RNA was extracted from hiPSC-CM using the miRNeasy 96 Kit (Qiagen, Hilden, Germany) following the manufacturer’s recommendations. After the extraction, RNA purity was assessed by NanoDrop™ 8000 Spectrophotometer (Thermo Fisher Scientific Inc.). 5–10 ng/μL of RNA per sample were reverse transcribed and pre-amplified by using the TaqMan™ Advanced miRNA cDNA Synthesis Kit (Thermo Fisher Scientific Inc.). The synthesized cDNA was used for RT-qPCR with selected TaqMan™ assays (Thermo Fischer Scientific Inc.). RT-qPCR was carried out following the Applied Biosciences TaqMan miRNA expression assay protocol on a ViiA7 instrument (Thermo Fisher Scientific, Inc.). […] Therefore, to maximize the number of drugs and concentrations, explored in the same study, we pooled the triplicates for intracellular profiling of miRNAs. Therefore, no statistical analysis was performed on the data of miRNA profiling in the pellets of hiPSC-CM.
Following RTCA CardioECR assessment, hiPSC-CM cell pellets were collected, and total RNA was extracted and purified to investigate miRNAs upregulation by RT-qPCR. […] For the initial assessment of intracellular miRNAs in 12 different treatments, encompassing various drug classes, we used a panel of 17 miRNAs, which we selected from the publicly available data focusing mainly on in vitro models and structural cardiotoxicants (Supplementary Table S2).

[3] = system: hiPSC-CM (iCell Cardiomyocytes^2); experiment: RTCA CardioECR assessment (impedance and electrophysiology parameters); conditions: 72-hour treatment, lowest concentration causing at least 20% change from baseline
Protocol: as §1
After seeding on fibronectin-coated xCELLigence ePlates (Agilent Technologies, Inc. Santa Clara, CA, USA), iCell^2 CM were monitored continuously through impedance electrodes. The following impedance parameters were measured: Cell Index (CI, measure of cell “health” and monolayer integrity), beating rate (BR) and amplitude (CI Amplitude, magnitude of contraction). Electrophysiology-like parameters (Field Potential Duration (FPD), considered as a surrogate for QT in in vivo studies, and Spike Amplitude (SA), depolarization induced by Na^+ channel opening) were measured starting from day 4–6, following the monolayer formation. […] All RTCA CardioECR data were double normalized (DMSO control and the baseline) with no further statistical group comparison for the normalized parameters. The variability of the data within the treatment groups was assessed by standard deviation.

hsa-miR-126-3p fold change, culture media ([1]; 7.7 µM, 24h): 1.5
hsa-miR-208b-3p fold change, culture media ([1]; 7.7 µM, 24h): 1.4
hsa-miR-[…] change, culture media ([1]; 7.7 µM, 24h): 1.1
hsa-miR-208b-3p fold change, culture media ([1]; 7.7 µM, 48h): 1.1
hsa-miR-[…] change, culture media ([1]; 7.7 µM, 48h): 0.5
hsa-miR-133b fold change, culture media ([1]; 7.7 µM, 72 h): 5.6
hsa-miR-208b-3p fold change, culture media ([1]; 7.7 µM, 72 h): 0.5
hsa-miR-[…] change, culture media ([1]; 7.7 µM, 72 h): 0.4
hsa-miR-7-5p fold change, intracellular ([2]; 0.77 µM): 2.3
hsa-miR-29a-5p fold change, intracellular ([2]; 0.77 µM): 1.1
hsa-miR-96-5p fold change, intracellular ([2]; 0.77 µM): 1.1
hsa-miR-126-3p fold change, intracellular ([2]; 0.77 µM): 2.0
hsa-miR-133b fold change, intracellular ([2]; 0.77 µM): 0.9
hsa-miR-146b-5p fold change, intracellular ([2]; 0.77 µM): 4.5
hsa-miR-182-5p fold change, intracellular ([2]; 0.77 µM): 0.9
hsa-miR-185-3p fold change, intracellular ([2]; 0.77 µM): 1.1
hsa-miR-187-3p fold change, intracellular ([2]; 0.77 µM): 1.1
hsa-miR-208b-3p fold change, intracellular ([2]; 0.77 µM): 4.5
hsa-miR-365a-5p fold change, intracellular ([2]; 0.77 µM): 0.1
hsa-miR-7-5p fold change, intracellular ([2]; 7.7 µM): 3.6
hsa-miR-29a-5p fold change, intracellular ([2]; 7.7 µM): 1.0
hsa-miR-96-5p fold change, intracellular ([2]; 7.7 µM): 0.5
hsa-miR-126-3p fold change, intracellular ([2]; 7.7 µM): 0.9
hsa-miR-133b fold change, intracellular ([2]; 7.7 µM): 0.7
hsa-miR-146b-5p fold change, intracellular ([2]; 7.7 µM): 0.2
hsa-miR-182-5p fold change, intracellular ([2]; 7.7 µM): 2.6
hsa-miR-185-3p fold change, intracellular ([2]; 7.7 µM): 4.6
hsa-miR-187-3p fold change, intracellular ([2]; 7.7 µM): 1.1
hsa-miR-208b-3p fold change, intracellular ([2]; 7.7 µM): 1.0
hsa-miR-365a-5p fold change, intracellular ([2]; 7.7 µM): 2.1
Structure (SMILES): C#Cc1cccc(Nc2ncnc3cc(OCCOC)c(OCCOC)cc23)c1 [Erlotinib]
hsa-miR-133b in culture media, in words ([1]; 24, 48, 72 h, doxorubicin 0.1 μM, arsenic trioxide 0.48 μM, milrinone 3 μM, vincristine 0.3 μM, vinblastine 0.3 μM, erlotinib 7.7 μM): increase that was not statistically significant
Cell index (CI) MEC [3]: ND (ND – not detected, magnitude of change was lower than 20%)

Structure (SMILES): Cc1ccc(NC(=O)c2ccc(CN3CCN(C)CC3)cc2)cc1Nc1nccc(-c2cccnc2)n1 [Imatinib]
miRNAs upregulated at the MEC overall (hiPSC-CM pellet) [2]: miR-96-5p, miR-126-3p, miR-133b, miR-185-3p

hsa-miR-7-5p fold change, intracellular ([2]; 0.1 µM): 0.3
hsa-miR-29a-5p fold change, intracellular ([2]; 0.1 µM): 0.1
hsa-miR-126-3p fold change, intracellular ([2]; 0.1 µM): 2.1
hsa-miR-146b-5p fold change, intracellular ([2]; 0.1 µM): 3.2
hsa-miR-182-5p fold change, intracellular ([2]; 0.1 µM): 3.2
hsa-miR-185-3p fold change, intracellular ([2]; 0.1 µM): 0.9
hsa-miR-187-3p fold change, intracellular ([2]; 0.1 µM): 4.5
hsa-miR-208b-3p fold change, intracellular ([2]; 0.1 µM): 1.0
hsa-miR-365a-5p fold change, intracellular ([2]; 0.1 µM): 0.5
hsa-miR-[…] change, intracellular ([2]; 0.1 µM): 0.6
hsa-miR-7-5p fold change, intracellular ([2]; 0.3 µM): 0.5
hsa-miR-126-3p fold change, intracellular ([2]; 0.3 µM): 50.7
hsa-miR-146b-5p fold change, intracellular ([2]; 0.3 µM): 12.9
hsa-miR-182-5p fold change, intracellular ([2]; 0.3 µM): 1.0
hsa-miR-185-3p fold change, intracellular ([2]; 0.3 µM): 0.6
hsa-miR-187-3p fold change, intracellular ([2]; 0.3 µM): 2.7
hsa-miR-208b-3p fold change, intracellular ([2]; 0.3 µM): 1.6
hsa-miR-[…] change, intracellular ([2]; 0.3 µM): 1.1
hsa-miR-7-5p fold change, intracellular ([2]; 1 µM): 0.3
hsa-miR-126-3p fold change, intracellular ([2]; 1 µM): 4.2
hsa-miR-146b-5p fold change, intracellular ([2]; 1 µM): 1.2
hsa-miR-182-5p fold change, intracellular ([2]; 1 µM): 0.9
hsa-miR-185-3p fold change, intracellular ([2]; 1 µM): 0.9
hsa-miR-187-3p fold change, intracellular ([2]; 1 µM): 2.0
hsa-miR-208b-3p fold change, intracellular ([2]; 1 µM): 1.2
hsa-miR-365a-5p fold change, intracellular ([2]; 1 µM): 1.9
hsa-miR-[…] change, intracellular ([2]; 1 µM): 0.6
hsa-miR-7-5p fold change, intracellular ([2]; 3 µM): 0.7
hsa-miR-126-3p fold change, intracellular ([2]; 3 µM): 3.4
hsa-miR-146b-5p fold change, intracellular ([2]; 3 µM): 4.0
hsa-miR-182-5p fold change, intracellular ([2]; 3 µM): 0.4
hsa-miR-185-3p fold change, intracellular ([2]; 3 µM): 4.3
hsa-miR-187-3p fold change, intracellular ([2]; 3 µM): 3.9
hsa-miR-208b-3p fold change, intracellular ([2]; 3 µM): 1.6
hsa-miR-[…] change, intracellular ([2]; 3 µM): 0.8
Structure (SMILES): CS(=O)(=O)CCNCc1ccc(-c2ccc3ncnc(Nc4ccc(OCc5cccc(F)c5)c(Cl)c4)c3c2)o1 [Lapatinib]
Cell index (CI) MEC [3]: ND (ND – not detected, magnitude of change was lower than 20%)

intracellular miRNA upregulation in hiPSC-CM, in words ([2]; 72-hour treatment, four concentrations per drug): smallest fold change
miRNAs upregulated at the MEC overall (hiPSC-CM pellet) ([2]; fold change ≥2, 72 h): miR-146b-5p
Structure (SMILES): CCN(CC)CCNC(=O)c1c(C)[nH]c(/C=C2\C(=O)Nc3ccc(F)cc32)c1C [Sunitinib]

From paper PMC12332266 (Frontiers in Pharmacology, 2025)
